Results as given in patent EP1023075B1, “LIQUID PRESENTATIONS OF OXAZAPHOSPHORINE-CONTAINING PHARMACEUTICAL PRODUCTS” (STADA ARZNEIMITTEL AG, priority 1997, dated 1999).

Assay: Solubility trials: saturation concentration of the oxazaphosphorine in water / aqueous urea solution
Conditions: saturated Cyclophosphamid solution

Question: Which pH-Wert (Harnstoff-Startkonzentration 0 % (G/V)) does the source give for `O=P1(N(CCCl)CCCl)NCCCO1` (stereo not shown) [Cyclophosphamid] here?
Answer: 3,2

Question: And the pH-Wert (Harnstoff-Startkonzentration 10 % (G/V))?
Answer: 3,5

Question: What about the pH-Wert (Harnstoff-Startkonzentration 20 % (G/V)) of the same compound?
Answer: 3,9

Question: And the pH-Wert (Harnstoff-Startkonzentration 30 % (G/V))?
Answer: 4,2

Question: What about the pH-Wert (Harnstoff-Startkonzentration 40 % (G/V)) of the same compound?
Answer: 4,3

Question: What about the pH-Wert (Harnstoff-Startkonzentration 45 % (G/V)) of the same compound?
Answer: 4,7

Question: And the pH-Wert (Harnstoff-Startkonzentration 50 % (G/V))?
Answer: 4,8
